Measured values as given in patent US6369081B1, “Muscarinic receptor agonists” (The University of Toledo, priority 1999, dated 2002).

The chains behind the UniProt entries cited, without tags or fusion partners. Where a name states a change or a piece, a line headed by the entry shows the natural chain unless it says otherwise.
UniProt P11229: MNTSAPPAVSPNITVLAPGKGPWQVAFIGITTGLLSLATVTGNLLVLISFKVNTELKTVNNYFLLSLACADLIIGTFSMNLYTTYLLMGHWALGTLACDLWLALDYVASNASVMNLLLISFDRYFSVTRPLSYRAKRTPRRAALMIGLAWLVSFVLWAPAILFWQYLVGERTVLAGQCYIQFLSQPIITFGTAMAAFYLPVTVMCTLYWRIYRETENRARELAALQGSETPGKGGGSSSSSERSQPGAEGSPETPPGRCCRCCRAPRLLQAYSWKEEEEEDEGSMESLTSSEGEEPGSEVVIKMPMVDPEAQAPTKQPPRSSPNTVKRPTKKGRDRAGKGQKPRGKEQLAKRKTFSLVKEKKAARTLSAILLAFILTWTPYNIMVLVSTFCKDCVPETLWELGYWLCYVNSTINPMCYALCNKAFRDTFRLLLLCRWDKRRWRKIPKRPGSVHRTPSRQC

Target: M1 muscarinic receptors (Homo sapiens, UniProt P11229)
Details: read-out: M1 Receptors Ki; M1 receptors expressed in A9 L cells

Q: For `CN1CCC=C(c2nsnc2OCCCCCCCCCCOc2nsnc2C2=CCCN(C)C2)C1` [(CH2)10], which Ki is on record?
A: The Ki was 0.23 ± 0.1 nM.
